# Experimental data: article PMC11022737, “Targeting GRP75 with a Chlorpromazine Derivative Inhibits Endometrial Cancer Progression Through GRP75–IP3R‐Ca^2+‐AMPK Axis” (Advanced Science, 2024)
# Test: plasma protein binding using equilibrium dialysis
# Format: in vitro ADME
# Conditions: read-out: % Bound (plasma protein binding rate) (converted)
# Description: Targeting GRP75 with a Chlorpromazine Derivative Inhibits Endometrial Cancer Progression through GRP75–IP3R-Ca2+-AMPK axis
# Qi Wang, Lijuan Li, Xiaoyan Gao, Chunxue Zhang, Chen Xu, Lingyi Song, Jian Li, Xiao Sun *, Fei Mao *, Yudong Wang *
# Supplementary Experimental Methods
# Plasma protein binding using equilibrium dialysis: A 96-well equilibrium dialysis device and HTD 96 a/b regenerated cellulose membrane strips with a molecular mass cutoff of 12–14 kDa were obtained from HTDialysis LLC (Gales Ferry, CT). The dialysis device was assembled following the manufacturer's instructions.
# Bioinformatics Analysis: The Kaplan–Meier Plotter (https://kmplot.com), GEPIA (http://gepia.cancer-pku.cn/), and Human Protein Atlas (http://www.proteinatlas.org/) were all utilized to analyze GRP75 expression in the EC microarray tissues and to assess overall survival and the relationship of GRP75 expression with prognosis. […]
# activity of the caspase 3/7 was then determined according to the manufacturer's […]
# RNA sequencing (RNA-seq) and enrichment analysis: Ishikawa cells were each divided into two subgroups, shNC and shHSPA9, with three replicate dishes for each cell type in each subgroup. […] Gene expression levels were then calculated using RSEM (v1.3.1), and differential expression analysis was conducted using DESeq2 (v1.4.5) with a Q value ≤ 0.05. […]
smiles,measurement,value
CN1CCN(CCCCCN2c3cc(Cl)ccc3Sc3cccnc32)CC1 [JX57],fraction unbound,0.0084
